Results on 1 compound are retold here after patent US9801872B2, “Pyridinyl and fused pyridinyl triazolone derivatives” (Takeda Pharmaceutical Company Limited, priority 2013, dated 2017).

Protein sequences, listed by entry. Tags and fused reporters are not part of them. Residues count along the entry.
UniProt Q06187, 382-659: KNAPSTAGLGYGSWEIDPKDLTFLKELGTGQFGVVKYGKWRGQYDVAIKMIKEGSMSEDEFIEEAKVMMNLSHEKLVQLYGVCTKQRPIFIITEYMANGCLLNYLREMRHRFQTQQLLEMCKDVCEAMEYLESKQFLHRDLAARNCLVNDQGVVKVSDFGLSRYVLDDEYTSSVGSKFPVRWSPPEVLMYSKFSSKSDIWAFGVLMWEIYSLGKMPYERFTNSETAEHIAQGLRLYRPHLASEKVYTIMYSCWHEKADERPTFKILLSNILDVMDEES

This assay deals with human BTK (Homo sapiens (Human), UniProt Q06187). The assay is described as follows: BTK inhibition: BTK-mediated phosphorylation of FAM-labeled substrate 5-FAM-EEPLYWSFPAKKK-NH2 (Caliper LC-3000). The class given is biochemical. Conditions: residues 382 to 659 of human BTK; 60 minutes at room temperature; pIC50 = -log(IC50), IC50 molar. The text has this:
The activity of compounds as BTK inhibitors may be determined by a variety of methods, including in vitro and in vivo methods.
This construct engineers an in-frame translational fusion with the Glutathione-S-Transferase (GST) protein for use in affinity purification. The fusion protein derived from this construct contains a protease recognition sequence to liberate the BTK from the GST affinity tag. High-titer baculoviral stocks, generated using the Bac-to-Bac® system (Invitrogen), are used to express the recombinant protein in Spodoptera frugiperda Sf9 cells in 10 L Wave bags. Recombinant proteins are isolated from cellular extracts by passage over Glutathione Sepharose 4B (GE Healthcare) and the BTK moiety is released from the GST affinity tag by treatment with PreScission protease. […] The purity of the fractions is assessed by SDS PAGE and the peak protein fractions are pooled and concentrated using Amicon Ultra-15 Centrifugal Filter Devices (Millipore).
The inhibitory properties of compounds relative to BTK is determined using a black 384-well-plate format in a buffer which contains 50 mM Hepes, 10 mM NaCl, 10 mM MgCl2, 0.2 mM EDTA, 0.01% Brij35®, 1 mM DTT, and 0.1 mg/mL BSA at pH 7.3. […] To quantify the fluorescent-labeled substrate and product following reaction, the test plate is loaded on a Caliper LC-3000, which measures percent of conversion by microfluidic-based separation. […]

Molecules are shown by their SMILES.

For the compound `CN(C)C/C=C/C(=O)N1CC[C@H](Oc2nc(-c3n[nH]c(=O)[nH]3)cc3ccccc23)C1` [Example 14, (S,E)-5-(1-((1-(4-(dimethylamino)but-2-enoyl)pyrrolidin-3-yl)oxy)isoquinolin-3-yl)-2,4-dihydro-3H-1,2,4-triazol-3-one], the “BTK Inhibition (pIC50)” value turned out to be 8.2.
